Drawing on patent US10442819B2, “Tricyclic compounds as inhibitors of mutant IDH enzymes” (Merck Sharp & Dohme Corp., priority 2014, dated 2019), this text covers IC50 for 29 compounds.

Chains of the proteins cited; added tags and fusions are not shown.
UniProt O75874, whole entry R132H: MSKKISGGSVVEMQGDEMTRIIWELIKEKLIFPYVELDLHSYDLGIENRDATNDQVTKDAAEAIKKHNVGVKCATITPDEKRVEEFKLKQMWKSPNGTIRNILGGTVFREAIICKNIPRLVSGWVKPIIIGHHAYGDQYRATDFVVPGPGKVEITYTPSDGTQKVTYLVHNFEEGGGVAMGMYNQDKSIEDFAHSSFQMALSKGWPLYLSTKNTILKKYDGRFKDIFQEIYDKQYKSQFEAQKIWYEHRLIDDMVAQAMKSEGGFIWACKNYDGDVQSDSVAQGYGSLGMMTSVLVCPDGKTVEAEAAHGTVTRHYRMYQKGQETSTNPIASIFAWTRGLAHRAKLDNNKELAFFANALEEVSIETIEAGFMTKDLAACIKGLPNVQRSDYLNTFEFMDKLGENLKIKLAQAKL

The target of the experiment is R132H mutant IDH1 enzyme (Homo sapiens (Human), UniProt O75874, R132H). Nature of the experiment: R132H IDH1 Enzymatic Assay. In kind it is biochemical. The following applies: R132H mutant IDH1 enzyme 1.5 nM final; luminescence readout; read-out: IC50.

What is called IC50 is the concentration that gives 50% inhibition. Take `CO[C@H]1C[C@H]2CC[C@@H](C1)N2c1ccc2c(c1)N(C(=O)[C@H]1CC[C@H](OC(C)C)CC1)Cc1cccnc1N2` [Example 302, 8-[(3-endo)-3-methoxy-8-azabicyclo[3.2.1]oct-8-yl]-6-{[trans-4-(1-methylethoxy)cyclohexyl]car-bonyl}-6,11-dihydro-5H-pyrido[2,3-b][1,5]benzodiazepine]: the IC50 is 46 nM.

`CO[C@H]1CC[C@H](C(=O)N2Cc3cccnc3Nc3ccc(-c4ccn(C)n4)cc32)CC1` [Example 184, 6-[(trans-4-methoxycyclohexyl)carbonyl]-8-(1-methyl-1H-pyrazol-3-yl)-6,11-dihydro-5H-pyrido[2,3-b][1,5]benzodiazepine]: the IC50 is 556 nM.

On to `CCO[C@H]1CC[C@H](C(=O)N2Cc3cccnc3Nc3ccc(N4[C@@H]5CC[C@H]4C[C@@H](OC)C5)cc32)CC1` [Example 301, 6-[(trans-4-ethoxycyclohexyl)carbonyl]-8-[(3-endo)-3-methoxy-8-azabicyclo[3.2.1]oct-8-yl]-6,11-dihydro-5H-pyrido[2,3-b][1,5]benzodiazepine], for which the IC50 was 116 nM.

For the compound `CC(C)O[C@H]1CC[C@H](C(=O)N2Cc3cccnc3Nc3ccc(C4(C(F)F)CCOCC4)cc32)OC1` [Example 32, (8-(4-(difluoromethyl)tetrahydro-2H-pyran-4-yl)-5,11-dihydro-6H-benzo[b]pyrido[2,3-e][1,4]diazepin-6-yl)((2R,5S)-5-isopropoxytetrahydro-2H-pyran-2-yl)methanone], the IC50 amounted to 16 nM.

For `CO[C@H]1CC[C@H](C(=O)N2Cc3cccnc3Nc3ccc(N4CC[C@@H](CF)C4)cc32)CC1` [Example 230, 8-[(3R)-3-(fluoromethyl)pyrrolidin-1-yl]-6-[(trans-4-methoxycyclohexyl)carbonyl]-6,11-dihydro-5H-pyrido[2,3-b][1,5]benzodiazepine], the IC50 came to 312 nM.

As to `CCON=C1CCC(C(=O)N2Cc3cccnc3Nc3ccc(N4CCOCC4)cc32)CC1` (centres unmarked) [Example 550, 4-[(8-morpholin-4-yl-5,11-dihydro-6H-pyrido[2,3-b][1,5]benzodiazepin-6-yl)carbonyl]cyclohexanone O-ethyloxime], the concentration for half-maximal inhibition (IC50) was found to be 145 nM.

`COc1cc(-c2ccc3c(c2)N(C(=O)[C@H]2CC[C@H](OC)CC2)Cc2cccnc2N3)ccn1` [Example 404, 6-[(trans-4-methoxycyclohexyl)carbonyl]-8-(2-methoxypyridin-4-yl)-6,11-dihydro-5H-pyrido[2,3-b][1,5]benzodiazepine]: the IC50 was determined as 83 nM.

Regarding `CO[C@H]1CC[C@H](C(=O)N2Cc3cccnc3Nc3ccc(CN4CC(F)(F)C4)cc32)CC1` [Example 487, 8-[(3,3-difluoroazetidin-1-yl)methyl]-6-[(trans-4-methoxycyclohexyl)carbonyl]-6,11-dihydro-5H-pyrido[2,3-b][1,5]benzodiazepine], the IC50 amounted to 308 nM.

`COC1CCC(C(=O)N2Cc3cccnc3Nc3ccc(N4CC[C@@H](OC)C4)cc32)CC1` (single isomer, unassigned) [Example 206]: the IC50 is 205 nM.

On to `CC(C)(C)O[C@H]1CC[C@H](C(=O)N2Cc3cccnc3Nc3ccc(N4C5CO[C@H]6[C@@H]5OC[C@H]64)cc32)CC1` (stereo in doubt) [Example 325, 6-[(trans-4-tert-butoxycyclohexyl)carbonyl]-8-[(3R,3aR,6S,6aR)-hexahydro-3,6-epiminofuro[3,2-b]furan-7-yl]-6,11-dihydro-5H-pyrido[2,3-b][1,5]benzodiazepine], for which the IC50 was determined as 20 nM.

On to `[2H]C([2H])([2H])C([2H])(O[C@H]1CC[C@@H](C(=O)N2Cc3cccnc3Nc3ccc(N4CCOCC4)cc32)CC1)C([2H])([2H])[2H]` [Example 126, [8-(morpholin-4-yl)-5,11-dihydro-6H-pyrido[2,3-b][1,5]benzodiazepin-6-yl]{cis-4-[(^2H7)propan-2-yloxy]cyclohexyl}metha-none], for which the half-maximal inhibitory concentration (IC50) was 126 nM.

For the compound `CCO[C@H]1CC[C@@H](C(=O)N2Cc3cccnc3Nc3ccc(N4CCOCC4)cc32)CC1` [Example 114, 6-[(cis-4-ethoxycyclohexyl)carbon-yl]-8-morpholin-4-yl-6,11-dihydro-5H-pyrido[2,3-b][1,5]benzodiazepine], the IC50 came out at 204 nM.

As to `CO[C@H]1CC[C@H](C(=O)N2Cc3cccnc3Nc3ccc(C4CCOCC4)cc32)CC1` [Example 513, 6-[(Trans-4-methoxycyclohexyl)carbonyl]-8-(tetrahydro-2H-pyran-4-yl)-6,11-dihydro-5H-pyrido[2,3-b][1,5]benzodiazepine], the IC50 came to 54 nM.

On to `COCC1CCC(C(=O)N2Cc3cccnc3Nc3ccc(N4CCOCC4)cc32)CC1` (centres unmarked) [Example 84, 6-{[4-(methoxymethyl)cyclo-hexyl]carbonyl}-8-morpholin-4-yl-6,11-dihydro-5H-pyrido[2,3-b][1,5]benzodiazepine], for which the IC50 is 636 nM.

For the compound `CC(C)O[C@H]1CC[C@H](C(=O)N2Cc3cccnc3Nc3ccc([C@H]4COC[C@@H]4C)cc32)OC1` [Example 538, ((2R,5S)-5-isopropoxytetrahydro-2H-pyran-2-yl)(8-((3S,4R)-4-methyltetrahydrofuran-3-yl)-5,11-dihydro-6H-benzo[b]pyrido[2,3-e][1,4]diazepin-6-yl)methanone], the IC50 came out at 5 nM.

Consider `C[C@H]1CC(F)(F)CC[C@@H]1C(=O)N1Cc2cccnc2Nc2ccc(N3CCC(F)(F)CC3)cc21` [Example 195, 6-{[(1S,2S)-4,4-difluoro-2-methylcyclohexyl]carbonyl}-8-(4,4-difluoropiperidin-1-yl)-6,11-dihydro-5H-pyrido[2,3-b][1,5]benzodiazepine], for which the IC50 came to 194 nM.

As to `O=C([C@H]1CC[C@H](N2CC(F)(F)C2)CC1)N1Cc2cccnc2Nc2ccc(N3CCOCC3)cc21` [Example 460, 6-{[trans-4-(3,3-difluoroazetidin-1-yl)cyclohexyl]carbonyl}-8-morpholin-4-yl-6,11-dihydro-5H-pyrido[2,3-b][1,5]benzodiazepine], the IC50 amounted to 870 nM.

Consider `CC(C)O[C@H]1CC[C@H](C(=O)N2Cc3cccnc3Nc3ccc(N4C5CCC4COC5)cc32)OC1` [Example 162, (8-(3-oxa-8-azabicyclo[3.2.1]octan-8-yl)-5,11-dihydro-6H-benzo[b]pyrido[2,3-e][1,4]diazepin-6-yl)((2R,5S)-5-isopropoxytetrahydro-2H-pyran-2-yl)methanone], for which the half-maximal inhibitory concentration (IC50) turned out to be 49 nM.

Take `COC1CCC(C(=O)N2Cc3cccnc3Nc3ccc(CCC(=O)O)cc32)CC1` (centres unmarked) [Example 423, 3-{6-[(4-methoxycyclohexyl)carbonyl]-6,11-dihydro-5H-pyrido[2,3-b][1,5]benzodiazepin-8-yl}propanoic acid]: the IC50 stood at 385 nM.

As to `CO[C@H]1CC[C@H](C(=O)N2Cc3cccnc3Nc3ccc(N4CCO[C@@H]5CCC[C@H]54)cc32)CC1` [Example 291, 8-[(4aR,7aR)-hexahydrocyclopenta[b][1,4]oxazin-4(4aH)-yl]-6-[(trans-4-methoxycyclohexyl)carbonyl]-6,11-dihydro-5H-pyrido[2,3-b][1,5]benzodiazepine], the IC50 amounted to 123 nM.

With `CC[C@H](N(C)[C@H]1CC[C@H](C(=O)N2Cc3cccnc3Nc3ccc(N4CCOCC4)cc32)CC1)C(F)(F)F` [Example 508, trans-N-methyl-4-[(8-morpholin-4-yl-5,11-dihydro-6H-pyrido[2,3-b][1,5]benzodiazepin-6-yl)carbonyl]-N-[(1S)-1-(trifluoromethyl)propyl]-cyclohexanamine], the IC50 stood at 39 nM.

`C=CC(=O)N1CCN(c2ccc3c(c2)N(C(=O)C2CC(C)(C)C2)Cc2cccnc2N3)CC1` [Example 500, 8-(4-acryloylpiperazin-1-yl)-6-[(3,3-dimethylcyclobutyl)carbonyl]-6,11-dihydro-5H-pyrido[2,3-b][1,5]benzodiazepine]: the IC50 turned out to be 463 nM.

Consider `CO[C@H]1CC[C@H](C(=O)N2Cc3cccnc3Nc3ccc(N4CCC(F)(F)CC4)cc32)CC1` [Example 282, 8-(4,4-difluoropiperidin-1-yl)-6-[(trans-4-methoxycyclohexyl)carbonyl]-6,11-dihydro-5H-pyrido[2,3-b][1,5]benzodiazepine], for which the IC50 was determined as 211 nM.

As for `C[C@H]1CC[C@H](C(=O)N2Cc3cccnc3Nc3ccccc32)CC1` [Example 58, 6-[(trans-4-methylcyclohexyl)carbon-yl]-6,11-dihydro-5H-pyrido[2,3-b][1,5]benzodiazepine], the IC50 was 458 nM.

Consider `CC(C)O[C@H]1CC[C@H](C(=O)N2Cc3cccnc3Nc3ccc(C(C)OCCOC4CCC4)cc32)CC1` (stereo partly drawn) [Example 541, (8-{1-[2-(Cyclobutyloxy)ethoxy]ethyl}-5,11-dihydro-6H-pyrido[2,3-b][1,5]benzodiazepin-6-yl)[trans-4-(propan-2-yloxy)cyclohexyl]methanone], for which the IC50 worked out at 13 nM.

`[2H]C([2H])([2H])C([2H])(O[C@H]1CC[C@H](C(=O)N2Cc3cccnc3Nc3ccc(N4CCOCC4)cc32)CC1)C([2H])([2H])[2H]` [Example 125, [8-(morpholin-4-yl)-5,11-dihydro-6H-pyrido[2,3-b][1,5]benzodiazepin-6-yl]{trans-4-[(^2H7)propan-2-yloxy]cyclohexyl}metha-none]: the IC50 worked out at 61 nM.

On to `O=C([C@H]1C[C@H](NC2(C(F)(F)F)CC2)C1)N1Cc2cccnc2Nc2ccc(N3CCOCC3)cc21` [Example 480, trans-3-[(8-morpholin-4-yl-5,11-dihydro-6H-pyrido[2,3-b][1,5]benzodiazepin-6-yl)carbonyl]-N-[1-(trifluoromethyl)cyclopropyl]-cyclobutanamine], for which the IC50 worked out at 576 nM.

As to `CO[C@H]1CC[C@H](C(=O)N2Cc3cccnc3Nc3ccc(N4CC5(CC(OC(C)C)C5)C4)cc32)CC1` [Example 412, 6-[(trans-4-methoxycyclohexyl)carbonyl]-8-[6-(1-methylethoxy)-2-azaspiro[3.3]hept-2-yl]-6,11-dihydro-5H-pyrido[2,3-b][1,5]benzodiazepine], the IC50 was 577 nM.

As to `CO[C@H]1CC[C@H](C(=O)N2Cc3cccnc3Nc3ccc(N4CCCC4=O)cc32)CC1` [Example 494, 1-{6-[(trans-4-methoxycyclohexyl)carbonyl]-6,11-dihydro-5H-pyrido[2,3-b][1,5]benzodiazepin-8-yl}pyrrolidin-2-one], the IC50 worked out at 763 nM.
